# In the library only some 0.91% were active in any assay of this set; here they are far more common.
# Statin myotox sup: protects C2C12 myotubes from simvastatin toxicity; ATP luminescence, 48 h; scaled: DMSO 0, geranylgeraniol control 100; rescue of ATP level, % at 7.49 µM; 0.78% of 330,000 active;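 active means mean ATP rescue above about 67%, or every replicate alone reaching that limit, limit read from the data, passing the limit was not always enough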;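 further: myotubes were challenged with 10 µM simvastatin during compound exposure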
# FN deposit inh: fibronectin deposition inhibition | AH1F fibroblasts, Alexa488-fibronectin deposition fluorescence, overnight | inhibition, % at 12.6 µM | 0.086% of 350,000 active | AID 743247;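 active means mean inhibition across replicates of 30% or more, regardless of how many single replicates reach that level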
#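 Schedule: 1 h cell adhesion before compound, then overnight fibronectin incubation; test system: AH1F fibroblast monolayer depositing Alexa488-labelled fibronectin into matrix; quantity: 10000 AH1F cells per well; probe or stimulus: fluorescent fibronectin at 24 nM final; signal: fluorescence, ex 485 nm, em 525 nm; evaluation: percent inhibition as loss of matrix-bound fibronectin fluorescence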
# UUG fidelity: yeast start codon fidelity modulation | S. cerevisiae UUG-firefly luciferase reporter, luminescence/redox ratio | activity score, % at 18.7 µM | 0.13% of 350,000 active | AID 602363;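 active means replicate mean at a twofold rise or more, about +100% in these data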;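 further: firefly luciferase made from a UUG start codon reports start codon fidelity; reporter light over untreated wells divided by growth signal over untreated wells; some hits fall short of that in this replicate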
# iPSC survival up: hiPSC single-cell survival enhancement | 0.044% of 360,000 active | survival enhancement, % at 20 µM | ATPlite luminescence; 100% = ROCK inhibitor wells, 0% = DMSO; in the data active means survival enhancement above about 18%;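 further: cells exposed to compounds for 16 hours before the ATP read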
# PGC1a acetyl inh: modulators of PGC1a acetylation; inhibition, % at 15.6 µM; U2OS PGC1a acetylation, AlphaScreen anti-acetyl-lysine; with virally co-expressed GCN5 acetyltransferase; 0.17% of 350,000 active;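 active means every replicate shows inhibition of at least 40%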
# A number is an active result; n = inactive; x = not tested or not shown.
SMILES,Statin myotox sup,FN deposit inh,UUG fidelity,iPSC survival up,PGC1a acetyl inh
COc1ccc(-c2cnc3c(c2)C(=O)N([C@H](C)CO)C[C@@H](C)[C@H](CN(C)S(=O)(=O)c2ccc(OC)cc2)O3)cc1,n,n,x,x,n
C[C@H]1CN([C@@H](C)CO)C(=O)c2cc(NC(=O)Cc3cn(C)c4ccccc34)ccc2O[C@@H]1CN(C)C,n,x,n,x,n
Cc1ccnc2c(N3C(=O)C4C5C=CC(C5)C4C3=O)cccc12 (stereo unspecified),121,x,n,n,n
O=C1C2C3C=CC(C3)C2C(=O)N1c1ccncc1 (stereo unspecified),n,x,n,n,n
Cn1c(=O)n(CC(=O)NC2CCCCC2)c(=O)c2ccccc21,72,x,n,n,n
C[C@@H]1CCCCO[C@@H](CN(C)CC2CCCCC2)[C@H](C)CN([C@@H](C)CO)C(=O)c2cc(NS(C)(=O)=O)ccc2O1,n,n,n,x,n
CC(C)NC(=O)Nc1ccc2c(c1)C(=O)N(C)C[C@@H](C)[C@@H](CN(C)S(C)(=O)=O)O2,x,n,x,x,x
CN(C)C(=O)CSc1nc(-c2ccccc2)nc2c1CCCC2,77,x,n,n,n
C[C@H]1CN([C@@H](C)CO)C(=O)c2cc(NS(C)(=O)=O)ccc2O[C@@H]1CN(C)C(=O)Nc1ccc2c(c1)OCO2,n,x,n,x,n
CCCCN(CCNP(=O)(OCC)OCC)CP(=O)(OCC)OCC,72,x,n,n,n
CN1CCN(/N=C/c2ccc(N(c3ccccc3)c3ccccc3)cc2)CC1,n,n,n,n,56
CN(CC(=O)NCc1ccco1)CC(=O)Nc1ccc(F)c(F)c1F,109,n,n,n,n
CN(CC(=O)NCc1ccco1)CC(=O)Nc1cc(S(C)(=O)=O)ccc1Cl,n,n,n,n,n
CC(C)NC(=S)N=Nc1c(O)[nH]c2ccc(C(C)C)cc12,n,n,n,n,48
O=C(c1ccccn1)N1C[C@@H]2[C@H](c3ccccc31)[C@@H](CO)N2C(=O)C1CC1,n,n,n,x,n
C[C@H](CO)N1C[C@H](C)[C@@H](CN(C)Cc2ccc(Oc3ccccc3)cc2)Oc2ccc(NC(=O)Nc3cccc4ccccc34)cc2CC1=O,74,x,n,x,n
C[C@H]1CN([C@@H](C)CO)C(=O)Cc2cc(NC(=O)Nc3cccc4ccccc34)ccc2O[C@H]1CN(C)Cc1ccc(Oc2ccccc2)cc1,n,x,n,x,n
C[C@H]1CN([C@@H](C)CO)C(=O)Cc2cc(NC(=O)Nc3ccccc3)ccc2O[C@H]1CN(C)Cc1ccc(Oc2ccccc2)cc1,n,x,n,x,n
C[C@H](CO)N1C[C@H](C)[C@@H](CN(C)Cc2ccc(Oc3ccccc3)cc2)Oc2ccc(NC(=O)Nc3ccccc3)cc2CC1=O,79,x,n,x,n
C[C@@H]1CN([C@H](C)CO)C(=O)Cc2cc(NC(=O)CCC(F)(F)F)ccc2O[C@H]1CN(C)Cc1ccc(Oc2ccccc2)cc1,102,n,n,x,n
C[C@@H]1CN([C@@H](C)CO)C(=O)Cc2cc(NC(=O)Nc3cccc4ccccc34)ccc2O[C@H]1CN(C)Cc1ccc2c(c1)OCO2,75,x,n,x,n
C[C@@H]1CN([C@H](C)CO)C(=O)Cc2cc(NC(=O)CCC(F)(F)F)ccc2O[C@H]1CN(C)Cc1ccccc1,n,x,n,x,x
Cc1noc(C)c1NC(=O)NCC[C@H]1CC[C@@H](NC(=O)c2ccccc2)[C@@H](CO)O1,n,x,n,x,n
C[C@@H]1CN([C@H](C)CO)S(=O)(=O)c2ccc(C#Cc3cccc(F)c3)cc2O[C@H]1CN(C)C(=O)CN1CCOCC1,n,n,n,x,n
C[C@H]1CN([C@@H](C)CO)C(=O)c2cccc(NS(C)(=O)=O)c2O[C@H]1CN(C)C(=O)Nc1ccc(C(F)(F)F)cc1,n,x,n,x,n
SMILES,Statin myotox sup,FN deposit inh,UUG fidelity,iPSC survival up,PGC1a acetyl inh
CC(C)NS(=O)(=O)c1ccc(CCC(=O)Nc2ccc3c(c2)OCCO3)cc1,x,n,x,n,x
Cc1cc(S(=O)(=O)NC(C)C)ccc1OCC(=O)Nc1ccc2c(c1)OCCO2,n,n,x,n,110
C#CCOCCOCCOCCNc1nc(N2CCN(C(=O)CCCCCCCCCCNC(=O)[C@@H]([C@H](C)O)n3cc(C)nn3)CC2)nc(N2CCN(C(=O)CCCCCCCCCCNC(=O)[C@@H]([C@H](C)O)n3cc(C)nn3)CC2)n1,77,n,n,n,n
Cc1ccc(S(=O)(=O)Nc2ccc3c(c2)CC(=O)N([C@H](C)CO)C[C@H](C)[C@@H](CN(C)Cc2ccc(Oc4ccccc4)cc2)O3)cc1,n,x,n,x,n
COc1ccc(S(=O)(=O)Nc2ccc3c(c2)CC(=O)N([C@@H](C)CO)C[C@@H](C)[C@H](CN(C)Cc2ccc(C(F)(F)F)cc2)O3)cc1,76,n,n,x,n
COc1ccc(S(=O)(=O)Nc2ccc3c(c2)CC(=O)N([C@@H](C)CO)C[C@@H](C)[C@@H](CN(C)Cc2ccc(C(F)(F)F)cc2)O3)cc1,n,n,n,x,n
Cc1ccc(S(=O)(=O)Nc2ccc3c(c2)CC(=O)N([C@@H](C)CO)C[C@@H](C)[C@H](CN(C)Cc2ccc(Oc4ccccc4)cc2)O3)cc1,83,x,n,x,n
COc1ccc(CN(C)C[C@@H]2Oc3ccc(NS(=O)(=O)c4ccc(F)cc4)cc3CC(=O)N([C@H](C)CO)C[C@H]2C)cc1,75,n,n,x,n
COc1ccc(S(=O)(=O)Nc2ccc3c(c2)CC(=O)N([C@H](C)CO)C[C@@H](C)[C@H](CN(C)Cc2ccc(C(F)(F)F)cc2)O3)cc1,79,n,n,x,n
CN(C)C(=O)C[C@@H]1CC[C@H]2[C@@H](COC[C@@H](O)CN2S(=O)(=O)c2ccccc2Cl)O1,n,n,n,x,n
COc1ccc(S(=O)(=O)Nc2ccc3c(c2)CC(=O)N([C@@H](C)CO)C[C@@H](C)[C@H](CN(C)Cc2ccc(-c4ccccc4)cc2)O3)cc1,140,x,n,x,n
COc1ccc(S(=O)(=O)Nc2ccc3c(c2)CC(=O)N([C@H](C)CO)C[C@@H](C)[C@@H](CN(C)Cc2ccc(-c4ccccc4)cc2)O3)cc1,n,x,n,x,n
COc1ccc(N(C(=O)c2snc(C(N)=O)c2N)C(C(=O)NC2CCCCC2)c2ccc(C)o2)cc1 (stereo unspecified),75,n,n,n,n
COc1ccc(C)cc1N(CC(=O)Nc1cccc(N(C)S(C)(=O)=O)c1)S(C)(=O)=O,n,32,n,n,n
CCC(=O)N1CC[C@@H]2[C@@H](CO)Nc3ccc(-c4ccc(F)cc4)cc3[C@@H]21,n,n,n,x,n
CSc1nc2nccc(/C=C\c3ccccc3)n2n1,n,n,n,n,50
CCOC(=O)c1ccc(NC(=S)N2CCCC(C(=O)OCC)C2)cc1 (stereo unspecified),90,n,n,n,n
CNC[C@@H]1Oc2ncc(-c3cccc(C(=O)N(C)C)c3)cc2C(=O)N([C@H](C)CO)C[C@@H]1C,n,n,x,x,n

# Compound activity from PubChem.
